This note sets out measurements from US11773096B2, “Small-molecule PI5P4K alpha/beta inhibitors and methods of treatment using same” (YALE UNIVERSITY, priority 2018, dated 2023).

By UniProt entry, the sequences of proteins in these tests, tags left out. Where a name states a change or a piece, a line headed by the entry shows the natural chain unless it says otherwise.
UniProt P48426: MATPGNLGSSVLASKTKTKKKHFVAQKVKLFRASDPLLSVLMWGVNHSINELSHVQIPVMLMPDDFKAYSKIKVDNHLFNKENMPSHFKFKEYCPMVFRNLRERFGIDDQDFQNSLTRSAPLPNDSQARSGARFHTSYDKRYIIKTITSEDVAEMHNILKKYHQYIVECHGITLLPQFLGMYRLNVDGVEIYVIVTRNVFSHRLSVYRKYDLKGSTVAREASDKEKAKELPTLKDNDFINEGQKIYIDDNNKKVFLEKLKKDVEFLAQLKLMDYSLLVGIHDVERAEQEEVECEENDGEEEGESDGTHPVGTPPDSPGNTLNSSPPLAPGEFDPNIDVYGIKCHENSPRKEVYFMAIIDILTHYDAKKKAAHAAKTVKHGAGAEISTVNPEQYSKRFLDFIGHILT

Broadly, the Kd is the constant that tells how readily two partners part at equilibrium.

The test concerns the target PI5P4Kα (Homo sapiens, UniProt P48426). Put plainly: Competitive fluorescent binding assay with TNP-ATP. The settings on record: read-out: Kd for TNP-ATP; change in fluorescence, 6 μM TNP-ATP, different amounts of kinase.

As to “2,4,6-trinitrophenol-adenosine triphosphate”, the Kd was found to be 13 µM.
